The values that follow come from paper PMC11648681, “Development of machine learning models for the prediction of the skin sensitization potential of cosmetic compounds” (PeerJ, 2024).

In the data set the test system is THP-1 cells. The data set can be described thus: CCK-8 cell viability of THP-1 cells after 48 h compound treatment in HaCaT/THP-1 co-culture. It is filed as cell-based, human. To be noted: single (not double) concentration. The procedure:
The co-culture system was set up according to the following described method. In brief, when the HaCaT cells reached 80–90% confluency, they were digested with 0.25% trypsin (Cytiva, Burlington, MA, USA), collected, and seeded into 96-well plates at a density of 10,000 cells per well for 24 h. THP-1 cells were collected, centrifuged, and re-suspended in fresh RPMI-1640 medium supplemented with 10% FBS at 2 × 10^6 cells/mL. Then cells are distributed into HaCaT-seeded 96 wells plate with 80 μL (1.6 × 10^5 cells/well).
The compounds listed in Table 1 were dissolved in DMSO to create stock solutions with a concentration of 500 mg/mL. Eleven concentrations were subsequently prepared using two-fold serial dilutions. These stock solutions were then further diluted 250-fold in RPMI-1640 + 10% FBS medium. Finally, 80 μL of the prepared solutions were added 1:1 to the treated 96-well plates and incubated for 48 h at 37 °C and 5% CO2.
After 48 h of treatment, the treated cells were collected 100 μL cells per well. […] THP-1 cell viability was determined using standard calculation methods.
The cytotoxicity of 15 test compounds listed in Table 1 was assessed using THP-1 cells across a concentration range of 1,000 to 3.9 μg/mL. Cell viability was assessed after 48 h of treatment using the CCK-8 assay.

Structures are written as SMILES.

For `Sc1nc2ccccc2s1` [2-mercaptobenzothiazole], the “final concentration used (highest concentration that maintained at least 80% cell viability)” value came to 1.95 µg/mL.

`O=[N+]([O-])c1ccc(Cl)c([N+](=O)[O-])c1` [DNCB, 2,4-dinitrochlorobenzene]: the “final concentration used (highest concentration that maintained at least 80% cell viability)” value amounted to 1.95 µg/mL.
